Measurements from US6818646B2 (priority 2000, dated 2004).

Legend:
PDEV [1] = target: T1, PDEV (Homo sapiens, UniProt O76074); experiment: PDE assay: inhibition of PDEV isolated from human tissue; format: biochemical; conditions: PDEV inhibitory activity
PDEV [2] = target: PDEV (Oryctolagus cuniculus, UniProt G1SX67); experiment: PDE assay: inhibition of PDEV isolated from rabbit tissue; conditions: PDEV inhibitory activity, rabbit tissue (footnote a)
PDEV [3] = target: T1, PDEV; experiment: In vitro determination of Ki for phosphodiesterase inhibitors; conditions: human tissue; given as 'Ki ='

IC50 (PDEV [1]) [nM]	Compound	also measured
51.5	O=C(c1ccccc1)N1Cc2c([nH]c3ccccc3c2=O)C1c1ccc2c(c1)OCO2 (stereo not shown)	
1.43	O=C(c1cc2ccc(OCc3ccccc3)cc2o1)N1Cc2c([nH]c3ccccc3c2=O)C1c1ccc2c(c1)OCO2 (stereo not shown)	
1.56	O=C(O)c1ccc(COC(=O)N2Cc3c([nH]c4ccccc4c3=O)C2c2ccc3c(c2)OCO3)cc1 (stereo not shown)	
	O=c1c2c([nH]c3ccccc13)[C@H](c1ccc3c(c1)OCO3)N(Cc1ccccc1)C2	IC50 (PDEV [2]): 6880 nM
1.14	O=c1c2c([nH]c3ccccc13)C(c1ccc3c(c1)CCC3)N(c1ncc(-c3ccc4c(c3)OCO4)cn1)C2 (stereo not shown)	
0.952	CSc1ccc(-c2ccc(C(=O)N3Cc4c([nH]c5ccccc5c4=O)C3c3ccc4c(c3)OCO4)o2)cc1 (stereo not shown)	
2.05	CN(C)c1ccc(-c2ccc(C(=O)N3Cc4c([nH]c5ccccc5c4=O)C3c3ccc4c(c3)OCO4)o2)cc1 (stereo not shown)	
1.05	O=C(O)c1ccc(-c2ccc(C(=O)N3Cc4c([nH]c5ccccc5c4=O)C3c3ccc4c(c3)OCO4)o2)cc1 (stereo not shown)	
95.1	O=C(Cc1cccnc1)N1Cc2c([nH]c3ccccc3c2=O)C1c1ccc2c(c1)OCO2 (stereo not shown)	
4.13	COc1ccc(-c2cnc(N3Cc4c([nH]c5ccccc5c4=O)C3c3ccsc3)nc2)cc1OC (stereo not shown)	
3.4	O=C(O)c1ccc(CCC(=O)N2Cc3c([nH]c4ccccc4c3=O)C2c2ccc3c(c2)OCO3)cc1 (stereo not shown)	
87	O=C(Cc1ccncc1)N1Cc2c([nH]c3ccccc3c2=O)C1c1ccc2c(c1)OCO2 (stereo not shown)	
11.2	COC(=O)c1ccc(CCC(=O)N2Cc3c([nH]c4ccccc4c3=O)C2c2ccc3c(c2)OCO3)cc1 (stereo not shown)	
0.54	O=C(C=Cc1ccccc1)N1Cc2c([nH]c3ccccc3c2=O)C1c1ccc2c(c1)OCO2 (stereo not shown)	
40.5	O=C(NCc1ccncc1)N1Cc2c([nH]c3ccccc3c2=O)C1c1ccc2c(c1)OCO2 (stereo not shown)	
2.42	COc1ccc(-c2cnc(N3Cc4c([nH]c5ccccc5c4=O)[C@@H]3c3ccc4c(c3)CCO4)nc2)cc1	
14.3	O=C(c1ncc[nH]1)N1Cc2c([nH]c3ccccc3c2=O)C1c1ccc2c(c1)CCO2 (stereo not shown)	
0.52	COc1ccc(-c2cnc(N3Cc4c([nH]c5ccccc5c4=O)C3c3ccc4c(c3)OCCO4)nc2)cc1 (stereo not shown)	
0.56	O=C(c1ccc(-c2cccc(CO)c2)o1)N1Cc2c([nH]c3ccccc3c2=O)C1c1ccc2c(c1)OCO2 (stereo not shown)	
2.71	O=C(OCc1ccncc1)N1Cc2c([nH]c3ccccc3c2=O)[C@@H]1c1ccc2c(c1)OCO2	
2.88	COC(=O)c1ccc(COC(=O)N2Cc3c([nH]c4ccccc4c3=O)C2c2ccc3c(c2)CCO3)cc1 (stereo not shown)	
1.22	O=C(c1ccc(-c2ccc(CO)cc2)o1)N1Cc2c([nH]c3ccccc3c2=O)C1c1ccc2c(c1)OCO2 (stereo not shown)	
	O=c1c2c([nH]c3ccccc13)C(c1ccc3c(c1)CCO3)N(c1ccc(Br)cn1)C2 (stereo not shown)	Ki (PDEV [3]): 1.55 nM
3.31	O=C(O)c1ccc(COC(=O)N2Cc3c([nH]c4ccccc4c3=O)C2c2ccc3c(c2)CCO3)cc1 (stereo not shown)	
2.12	O=C(OCc1ccccc1)N1Cc2c([nH]c3ccccc3c2=O)C1c1ccc2c(c1)OCO2 (stereo not shown)	
1.02	O=C(c1cc2ccccc2o1)N1Cc2c([nH]c3ccccc3c2=O)C1c1ccc2c(c1)CCO2 (stereo not shown)	

Compound	IC50 (PDEV [1]) [nM]	also measured
O=C(c1ccc(-c2cccc(C(F)(F)F)c2)o1)N1Cc2c([nH]c3ccccc3c2=O)C1c1ccc2c(c1)OCO2 (single isomer, unassigned)	0.66	
COc1ccc(-c2cnc(N3Cc4c([nH]c5ccccc5c4=O)[C@H]3c3ccc4c(c3)CCO4)nc2)cc1 [Compound 66, (R)-1,2,3,4-Tetrahydro-2-[5-(4-methoxyphenyl)-pyrimidin-2-yl]-3-(2,4-dihydrobenzofuranyl)-9H-pyrrolo-[3,4-b]quinolin-9-one]	0.17	
